# Results from PubChem BioAssay AID463082 (The Scripps Research Institute Molecular Screening Center, 2010).
# By UniProt entry, the sequences of proteins in these tests, tags left out.
# UniProt Q13093, whole entry: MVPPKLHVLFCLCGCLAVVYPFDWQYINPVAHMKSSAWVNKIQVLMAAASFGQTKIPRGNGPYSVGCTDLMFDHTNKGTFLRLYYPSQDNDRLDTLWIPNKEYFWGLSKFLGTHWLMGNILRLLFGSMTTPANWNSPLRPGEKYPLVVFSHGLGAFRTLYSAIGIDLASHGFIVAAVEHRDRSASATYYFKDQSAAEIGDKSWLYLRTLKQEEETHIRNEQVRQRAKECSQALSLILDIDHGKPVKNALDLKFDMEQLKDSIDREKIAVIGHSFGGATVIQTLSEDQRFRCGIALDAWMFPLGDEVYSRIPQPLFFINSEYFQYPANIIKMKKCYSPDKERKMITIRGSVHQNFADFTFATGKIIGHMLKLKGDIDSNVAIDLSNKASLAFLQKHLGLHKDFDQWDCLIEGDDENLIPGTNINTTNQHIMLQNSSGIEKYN
# This is a selection; strong and weak results do not stand in their true shares. Some tests of the compounds listed are not included; inactive here does not mean inactive elsewhere. The source made the active and inactive calls.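 How the source made its calls: active means inhibition above the mean inhibition across the screen plus 3 SD (cut at about 25% in these data); inactive means the rest.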
# Molecular target: Platelet-activating factor acetylhydrolase (Homo sapiens) (UniProt Q13093)
# Assay: inhibition of plasma PAF acetylhydrolase – biochemical, fluorescence polarization, human, primary screen (AID 463082);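 further: inhibitors block binding of the rhodamine activity-based probe so polarization drops; 0% = enzyme with DMSO and 100% = wells lacking pPAFAH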
# Settings: recombinant pPAFAH, FP-rhodamine probe fluorescence polarization; at 3.39 µM; stronger effect = higher value
row,SMILES,inhibition
1,CN(C)C1(CNC(=O)c2ccc(Br)cc2)CCCCC1,inactive: 5.42%
2,COc1cc(C(=O)NCC2(N(C)C)CCCCC2)c([N+](=O)[O-])cc1OC,inactive: 0.24%
3,COc1cccc(C(=O)NCC2(N3CCCCC3)CCCCC2)c1,inactive: -0.83%
4,COc1ccc(Cl)cc1C(=O)NCC1(N(C)C)CCCCC1,inactive: 2.26%
5,O=C(NCC1(N2CCCCC2)CCCCC1)c1cccc(Cl)c1,inactive: -3.61%
6,O=C(OC1CN2CCC1CC2)C(CO)(c1ccccc1)c1ccccc1 (centres undefined),inactive: 3.33%
7,COc1ccc(Br)c(C(=O)NCC2(N3CCCCC3)CCCCC2)c1,inactive: -2.17%
8,CN(C)c1cccc(C(=O)NCC2(N(C)C)CCCCC2)c1,inactive: 3.37%
9,CC(C)Oc1ccc(C(=O)NCC2(N(C)C)CCCCC2)cc1,inactive: 2.08%
10,O=C(NCC1(N2CCCCC2)CCCCC1)c1cc([N+](=O)[O-])ccc1Cl,inactive: 3.9%
11,CN1[C@@H]2CC[C@H]1CC(OC(=O)C(O)(c1ccccc1)c1ccccc1)C2 (some centres undefined),inactive: 7.46%
12,CC(C)N1C(=O)CC2(CCN(CCOC(=O)C(O)(c3ccccc3)c3ccccc3)CC2)C1=O,inactive: -0.77%
13,CCN(CC)CC(C)C(C)OC(=O)C(O)(c1ccccc1)c1ccccc1 (centres undefined),inactive: 0.21%
14,COc1cc(SC)ccc1C(=O)NCC1(N(C)C)CCCCC1,inactive: -0.76%
15,Cc1ccc(C(=O)NCC2(N3CCCCC3)CCCCC2)cc1,inactive: 1.45%
16,Cc1ccccc1C(=O)NCC1(N2CCCCC2)CCCCC1,inactive: -1.55%
17,CN(C)c1ccc(C(=O)NCC2(N(C)C)CCCCC2)cc1,inactive: -0.31%
18,CN(C)C1CCCC1OC(=O)C(O)(c1ccccc1)c1ccccc1 (centres undefined),inactive: 5.67%
19,C=CCN1CCN(CCOC(=O)C(O)(c2ccccc2)c2ccccc2)CC1,inactive: 0.13%
20,O=C(NCC1(N2CCCCC2)CCCCC1)c1cc(F)c(F)cc1Cl,inactive: 3.15%
21,CCN1CCCC(OC(=O)C2(O)c3ccccc3C=Cc3ccccc32)C1 (centres undefined),inactive: -0.48%
22,Cc1cc(C(=O)NCC2(N3CCCCC3)CCCCC2)ccc1[N+](=O)[O-],inactive: -3.63%
23,O=C(NCC1(N2CCCCC2)CCCCC1)c1cccc(Br)c1,inactive: -0.81%
24,COc1ccc(C(=O)NCC2(N(C)C)CCCCC2)cc1,inactive: 0.35%
